# Values of other authors as cited in PubChem BioAssay AID1811 (Shanghai Institute of Organic Chemistry, 2009).
# This is one part of the list. The source made the active and inactive calls. Where no limit is named, active and inactive come without a cut-off here.
# Test system: acetylcholinesterase
# Experiment: PubChem AID 1811
# Details: PDB complex binding affinities from literature
row,Compound,outcome
1,O=c1ccc2c([nH]1)CCC[C@@H]2NCCCCCCCCCCCCN[C@H]1CCCc2[nH]c(=O)ccc21,active
2,COc1ccc2c3c1O[C@H]1C[C@@H](O)C=C[C@@]31CC[N+](CCCCCCCCN1C(=O)c3ccccc3C1=O)=C2,active
3,c1ccc2c(NCCCCCNc3c4c(nc5ccccc35)CCCC4)c3c(nc2c1)CCCC3,active
